Reference: PubChem BioAssay AID893 (National Center for Advancing Translational Sciences (NCATS), 2007)
This is a selection; strong and weak results do not stand in their true shares. Records with an inconclusive call do not appear. Active and inactive are the calls of the source. Calls follow the shape of the dose curve; as a rule, active = well fitted inhibition curve with a large enough effect; inconclusive = small, poorly fitted or top-dose-only effect; inactive = no such curve, though single readings can be large or run the other way.

The compounds below were run against 3-hydroxyacyl-CoA dehydrogenase type-2 (Homo sapiens) (UniProt Q99714) (assay: qHTS Assay for Inhibitors of HSD17B4, hydroxysteroid (17-beta) dehydrogenase 4). Conditions: recombinant HSD17B10, NADH fluorescence kinetic; at 57.1 µM (top of the series) unless noted.
% is scaled to controls: 0 for no effect and ±100 for the full control effect.
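Also: the protocol describes HADH2 (HSD17B10) and not the HSD17B4 of the title; nearly all actives have a fitted effect of over 70% in size.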

Structure (SMILES)	activity change, negative = inhibition
N#CC1(Nc2ccccc2)CCN(CCc2ccccc2)CC1	inactive: 7.31%
NCC(O)CN.Oc1c(Cl)c(Cl)c(Cl)c(Cl)c1Cl	inactive: 1.34% [at 11.4 µM]
CCOP(=O)(Cl)Cl	inactive: -4.29%
C=C(C)CNCC(=C)C.Oc1c(Cl)c(Cl)c(Cl)c(Cl)c1Cl	inactive: -2.27% [at 11.4 µM]
NC1CCCCC1.NP(=O)(O)N(CCCl)CCCl	inactive: 5% [at 11.4 µM]
O=C(OC1CN2CCC1CC2)C1c2ccccc2Oc2ccccc21 (centres undefined)	inactive: 10.1%
COc1ccc(NC2CCN(CCc3ccccc3)CC2)c(OC)c1	inactive: -0.675%
Fc1ccccc1NC1CCN(Cc2ccccc2)CC1	inactive: -1.7%
O=C(O)C1(Nc2ccccc2)CCN(Cc2ccccc2)CC1	inactive: 12.8% [at 11.4 µM]
CCOc1ncccc1C(=O)NCC1(N2CCOCC2)CCCCC1	inactive: -5.54%
CCC(CO)(C(=O)OC1CN2CCC1CC2)c1ccccc1 (centres undefined)	inactive: 4.91%
N/C(=N\O)c1c(N)no[n+]1[O-]	inactive: 11.3%
C[C@@H](O)CC(C)(C)N.Oc1c(Cl)c(Cl)c(Cl)c(Cl)c1Cl	inactive: 1.23% [at 11.4 µM]
ClCCOP(OCCCl)OCCCl	inactive: -4.22%
